# Measurements reported in patent US20240368664A1, “LIVE YEAST BIOSENSORS AND METHODS OF USE THEREOF” (priority 2021, published 2024).
# T1: Saccharomyces cerevisiae pheromone GPCR ScSte2 (Saccharomyces cerevisiae), D6VTK4
# T1 chain: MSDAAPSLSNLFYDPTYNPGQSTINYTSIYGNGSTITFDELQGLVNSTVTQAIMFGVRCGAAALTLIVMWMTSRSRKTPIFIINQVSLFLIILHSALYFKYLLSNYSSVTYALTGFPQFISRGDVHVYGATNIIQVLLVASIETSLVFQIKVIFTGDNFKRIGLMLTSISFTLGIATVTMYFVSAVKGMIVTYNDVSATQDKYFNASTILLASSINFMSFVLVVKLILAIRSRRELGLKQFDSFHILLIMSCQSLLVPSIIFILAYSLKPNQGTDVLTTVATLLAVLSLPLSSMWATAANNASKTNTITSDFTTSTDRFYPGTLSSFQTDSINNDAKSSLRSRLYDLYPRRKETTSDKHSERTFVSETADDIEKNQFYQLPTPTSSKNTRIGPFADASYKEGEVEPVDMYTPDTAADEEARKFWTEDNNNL
# B1: ScPep4A (peptide)
# peptide: WHWAQLKPGQPMY
# modifications: not checked
# Molecular target: T1, Saccharomyces cerevisiae pheromone GPCR …
# Experiment: cell-based or functional assay
binder,measurement,value
B1,LogEC50,-5.4 log M
